# Screening results (PubChem BioAssay)
# This is a sample that favours compounds with a hit; in the whole collection about 4.2% have one here.
# MC4R ag barr: activates human MC4R beta-arrestin recruitment; U2OS MC4R beta-arrestin complementation, luminescence; percent of melanotan II response, DMSO zero; activation, % at 8.9 µM; 360,000 tested, 0.98% active;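 active = activation above a per-plate cutoff, the mean activation of sample wells on that plate plus 3 SD, cut at about 8% in these data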
# Yeast UUG start: alters start codon recognition fidelity in yeast | S. cerevisiae UUG-firefly luciferase reporter, luminescence/redox ratio | activity score, % at 18.7 µM | hit rate 0.13% among 350,000 | AID 602363;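 active means replicate mean at a twofold rise or more, about +100% in these data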;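 further: firefly luciferase made from a UUG start codon reports start codon fidelity; reporter light over untreated wells divided by growth signal over untreated wells; some hits fall short of that in this replicate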
# MC4R antag cAMP: blocks human MC4R cAMP signaling. P32245. 360,000 tested, 0.48% active. MC4R-expressing cells, MTII-stimulated cAMP, LANCE TR-FRET. inhibition, % at 6.5 µM;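 active = inhibition above its plate's cutoff, the mean of tested wells on that plate plus 3 SD, cut at about 29% in these data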;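 also: 0% = Melanotan II alone and 100% = Melanotan II plus saturating MCL0020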
#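 System – human MC4R-expressing U2OS cells · Also added – Melanotan II · Dosing – one concentration, 6.5 µM nominal · Timing – 30-min compound, 1-h challenge, 1-h detection, room temperature · Measured by – Eu-cAMP/anti-cAMP TR-FRET, emission 671 nm · Replicates – singlicate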
# NALP1 yeast inh: inhibitors of NALP1 inflammasome in yeast | S. cerevisiae NALP1/ASC/caspase-1 growth, X-gal OD620, 72 h | inhibition, % at 10 µM | 280,000 tested, 0.61% active; in the data active = inhibition mostly above about 24%, no sharp cut-off; inactive = mostly below about 32%
# HDAC3 inh: blocks human histone deacetylase 3; O15379; recombinant HDAC3, fluorogenic peptide/trypsin coupled, fluorescence; inhibition, % at 8.3 µM; 320,000 tested, 0.15% active; AID 2718; in the data active = inhibition above about 26%, passing the limit was not always enough
# ALR H2O2 inh: blocks human ALR sulfhydryl oxidase activity; P55789; purified ALR, DTT oxidation, H2O2 HRP-luminol luminescence; inhibition, % (test concentration not listed); 3.8% of 290,000 active; AID 485317;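 active = mean and each replicate at 75% or more; inconclusive = only one of the two met; inactive = neither met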;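 also: stock transfer was 7.5 nL into about 7.5 µL; 0% = neutral wells and 100% = wells with inactivated enzyme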
# MC4R barr conf: human MC4R beta-arrestin agonism confirmation. shares compounds with MC4R ag barr. U2OS MC4R beta-arrestin recruitment, luminescence; scaled DMSO 0%, Melanotan II 100%. activation, % at 8.9 µM. 2,400 tested, 31% active. AID 602192;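 active = mean activation across replicates above the hit cutoff set in the earlier primary screen, cut at about 8% in these data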
# MOR-DOR barr ag: activates mu-delta opioid heterodimer, MC4R agonist counter-screen. activation, % at 9.2 µM. shares compounds with MC4R ag barr. 2,400 tested, 5.8% active. U2OS PathHunter beta-arrestin, beta-gal luminescence; percent of deltorphin B response, DMSO zero;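 active = mean activation across replicates exceeds the hit threshold derived in the earlier primary screen, cut at about 18% in these data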;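 also: 100% = deltorphin B at 0.9 µM final and 0% = DMSO alone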
# * = called active by the depositor; x = no result.
1. C[C@H]1CN([C@@H](C)CO)C(=O)Cc2cc(NC(=O)Nc3ccc(F)cc3)ccc2O[C@@H]1CN(C)C(=O)Nc1ccccc1
2. S=C(Nc1cc(Cl)cc(Cl)c1)NC1CCN(Cc2ccccc2)CC1
3. Clc1ccc(-n2ncc3c(NCc4ccc5c(c4)OCO5)ncnc32)cc1
4. CCn1c(SCC(=O)Nc2ccc3c(c2)oc2ccccc23)nnc1-c1ccc(N)cc1
5. C[C@@H]1CN([C@H](C)CO)C(=O)Cc2cc(NS(=O)(=O)c3cccs3)ccc2O[C@@H]1CN(C)C(=O)Nc1cccc2ccccc12

Compound	1	2	3	4	5
MC4R ag barr	x	13*	10*	15*	x
Yeast UUG start	-7	-12	17	-3	9
MC4R antag cAMP	x	5	6	10	x
NALP1 yeast inh	x	10	7	22	x
HDAC3 inh	x	-2	-2	-4	x
ALR H2O2 inh	x	-18	-5	-30	x
MC4R barr conf	x	8	3	16*	x
MOR-DOR barr ag	x	22*	7	19*	x

6. CN1CCN(CCCNC(=O)c2ccc(/C=C3\Sc4ccccc4N(Cc4ccc(F)cc4)C3=O)cc2)CC1
7. CCN1CCN(CCNC(=O)c2ccc(/C=C3\Sc4ccccc4N(Cc4ccccc4F)C3=O)cc2)CC1
8. CN1CCN(CCCNC(=O)c2ccc(/C=C3/Sc4ccccc4N(Cc4cccc(Cl)c4)C3=O)cc2)CC1
9. CO[C@@H]1CN(C)C(=O)c2ccc(NS(=O)(=O)c3cn(C)cn3)cc2OC[C@@H](C)N(CC2CC2)C[C@H]1C
10. CC(=O)N(C)C[C@H]1Oc2cc(C#Cc3ccncc3)ccc2S(=O)(=O)N([C@H](C)CO)C[C@H]1C

Compound	6	7	8	9	10
MC4R ag barr	3	12*	10*	x	x
Yeast UUG start	20	x	-17	-4	11
MC4R antag cAMP	-5	1	10	x	x
NALP1 yeast inh	23	14	7	x	x
HDAC3 inh	x	0	x	x	x
ALR H2O2 inh	x	9	x	x	x
MC4R barr conf	x	17*	16*	x	x
MOR-DOR barr ag	x	3	1	x	x

11. O=C(COc1ccccc1[N+](=O)[O-])Nc1ccc2c(c1)CCC2
12. COc1ccc(/C=N/Nc2ccc(C(F)(F)F)cc2[N+](=O)[O-])cc1O
13. CC(=O)Nc1ccc(N(C(=O)Cc2c[nH]c3ccccc23)C(C(=O)NC2CCCCC2)c2ccco2)cc1 (stereo not drawn)
14. Cc1ccc(C(C(=O)NC2CCCCC2)N(C(=O)Cc2c[nH]c3ccccc23)c2ccccc2)o1 (stereo not drawn)
15. CCNC(=O)C[C@@H]1C=C[C@@H](NC(=O)C2CCC2)[C@@H](CO)O1

Compound	11	12	13	14	15
MC4R ag barr	13*	20*	-2	12*	x
Yeast UUG start	16	x	-2	12	-2
MC4R antag cAMP	2	-8	5	-6	x
NALP1 yeast inh	x	26	-35	12	x
HDAC3 inh	2	-2	-6	2	x
ALR H2O2 inh	x	-2	-9	1	x
MC4R barr conf	2	4	x	6	x
MOR-DOR barr ag	3	4	x	10	x

16. Brc1cc2c(cc1-c1nc3ccccc3s1)OCO2
17. Brc1ccc(-c2nc3ccccc3s2)s1
18. O=C(Nc1ccccc1)Nc1ccc2ccccc2n1
19. O=C(Nc1ccc(F)cc1)Nc1ccc2ccccc2n1
20. C[C@@H]1CN([C@@H](C)CO)C(=O)Cc2cc(NC(=O)Nc3ccc(F)cc3)ccc2O[C@H]1CN(C)Cc1ccccc1

Compound	16	17	18	19	20
MC4R ag barr	15*	0	12*	5	x
Yeast UUG start	-13	-16	-12	-7	6
MC4R antag cAMP	8	17	-3	-9	x
NALP1 yeast inh	19	11	11	16	x
HDAC3 inh	-3	-3	0	1	x
ALR H2O2 inh	x	3	5	5	x
MC4R barr conf	1	x	1	x	x
MOR-DOR barr ag	4	x	4	x	x

21. O=C(Nc1nc(-c2ccc(F)c(F)c2)cs1)Nc1ccc(F)cc1F
22. C[C@H](CO)N1C[C@H](C)[C@H](CN(C)C(=O)CN(C)C)Oc2cc(-c3ccc(C#N)cc3)ccc2S1(=O)=O
23. Cc1ccc(Oc2ccc(Cl)cc2NC(=O)c2ccc(F)cc2F)cc1
24. O=C(NC(=S)Nc1nc(-c2ccccc2)cs1)c1cccs1
25. O=C(NC(=S)Nc1nc(-c2ccccc2)cs1)c1cncc(Br)c1

Compound	21	22	23	24	25
MC4R ag barr	10*	x	11*	11*	22*
Yeast UUG start	-14	-6	-9	-12	-7
MC4R antag cAMP	-1	x	-1	12	5
NALP1 yeast inh	18	x	21	-13	-1
HDAC3 inh	-4	x	-7	-2	9
ALR H2O2 inh	-2	x	-2	0	2
MC4R barr conf	7	x	1	0	6
MOR-DOR barr ag	4	x	2	1	1

# Sorted by the number under MC4R barr conf (highest first): four of the compounds above
entry | SMILES | MC4R ag barr | Yeast UUG start | MC4R antag cAMP | NALP1 yeast inh | HDAC3 inh | ALR H2O2 inh | MC4R barr conf
21 | O=C(Nc1nc(-c2ccc(F)c(F)c2)cs1)Nc1ccc(F)cc1F | 10* | -14 | -1 | 18 | -4 | -2 | 7
25 | O=C(NC(=S)Nc1nc(-c2ccccc2)cs1)c1cncc(Br)c1 | 22* | -7 | 5 | -1 | 9 | 2 | 6
23 | Cc1ccc(Oc2ccc(Cl)cc2NC(=O)c2ccc(F)cc2F)cc1 | 11* | -9 | -1 | 21 | -7 | -2 | 1
24 | O=C(NC(=S)Nc1nc(-c2ccccc2)cs1)c1cccs1 | 11* | -12 | 12 | -13 | -2 | 0 | 0

# Continued:
26. O=C(NC(c1ccccc1)c1ccc2ccccc2n1)C1CCN(CCOc2ccc(Cl)cc2Cl)CC1 (stereo not drawn)
27. Cc1cccnc1C(c1ccc(F)cc1)N(C)C(=O)C1CCN(CCOc2ccc(Cl)cc2Cl)CC1 (stereo not drawn)
28. O=C(NC(c1ccc(F)cc1)c1ccc2ccccc2n1)C1CCN(CCOc2ccc(Cl)cc2)CC1 (stereo not drawn)
29. COc1ccc(NC(=O)Nc2ccc3c(c2)C(=O)N([C@H](C)CO)C[C@@H](C)[C@H](CN(C)CC2CCCCC2)O3)cc1
30. CCCn1nnc(NC(=O)c2ccc(-c3cc(Cl)ccc3Cl)o2)n1

Compound	26	27	28	29	30
MC4R ag barr	39*	11*	8	x	9.6*
Yeast UUG start	-22	2	3	1	x
MC4R antag cAMP	13	7	6	x	2
NALP1 yeast inh	x	x	x	x	-2
HDAC3 inh	x	x	x	x	5
ALR H2O2 inh	x	x	x	x	-14
MC4R barr conf	18*	18*	x	x	8
MOR-DOR barr ag	7	10	x	x	3

31. CCCCCCOc1ccc(/C(C)=N/NC2=NCCN2)cc1[N+](=O)[O-]
32. C/C(=N\NC1=NCCN1)c1ccc(N)c([N+](=O)[O-])c1
33. C=CCn1c(SCC(=O)NC(=O)NCc2ccco2)nc2sc(C)c(C)c2c1=O
34. COc1ccc(Nc2oc(-c3ccc(Cl)cc3)nc2C#N)cc1
35. COc1ccc(Nc2oc(-c3ccc(OC)cc3)nc2C#N)cc1

Compound	31	32	33	34	35
MC4R ag barr	14*	-4	11*	18*	-1
Yeast UUG start	x	x	x	-18	x
MC4R antag cAMP	4	-11	-5	-12	11
NALP1 yeast inh	2	8	6	-8	x
HDAC3 inh	9	x	7	-8	-4
ALR H2O2 inh	-31	42	x	0	-6
MC4R barr conf	12*	x	10*	3	x
MOR-DOR barr ag	10	x	6	8	x

36. CCCCCCCCNS(=O)(=O)CCNCCc1ccccc1
37. O=C(NCC[C@H]1CC[C@H](NC(=O)C2CCCCC2)[C@H](CO)O1)Nc1ccc(Cl)cc1
38. Cc1ccc(C(=O)N(Nc2nc3ccccc3s2)C(=O)c2ccc(C)cc2)cc1
39. Cc1ccc2nc(-c3cccc(NS(C)(=O)=O)c3)cc(-c3ccccc3)c2c1
40. Cc1nc(-c2cccc(NS(=O)(=O)c3ccccc3)c2)cs1
41. COc1ccc(OC)c(NC(=O)COC(=O)c2cc3c(s2)CCC3)c1
42. COc1ccccc1NC(=O)COC(=O)c1cc2c(s1)CCC2

Compound	36	37	38	39	40	41	42
MC4R ag barr	10.0*	x	25*	11*	2	20*	2
Yeast UUG start	2	1	-4	x	-3	x	x
MC4R antag cAMP	4	x	8	0	-1	12	4
NALP1 yeast inh	x	x	11	13	19	3	x
HDAC3 inh	x	x	-15	2	1	-2	x
ALR H2O2 inh	x	x	-2	0	-5	-4	x
MC4R barr conf	16*	x	14*	7	x	7	x
MOR-DOR barr ag	6	x	6	3	x	7	x
